Values joined by “and” are separate entries in the source; they are usually repeats but may differ in a detail not shown here. Equal entries are not always repeated.
Tests used:
[1] = target: T1, ATPase family AAA domain-containing protein 2 (Homo sapiens, UniProt Q6PL18)
T1 sequence (Q6PL18 whole entry): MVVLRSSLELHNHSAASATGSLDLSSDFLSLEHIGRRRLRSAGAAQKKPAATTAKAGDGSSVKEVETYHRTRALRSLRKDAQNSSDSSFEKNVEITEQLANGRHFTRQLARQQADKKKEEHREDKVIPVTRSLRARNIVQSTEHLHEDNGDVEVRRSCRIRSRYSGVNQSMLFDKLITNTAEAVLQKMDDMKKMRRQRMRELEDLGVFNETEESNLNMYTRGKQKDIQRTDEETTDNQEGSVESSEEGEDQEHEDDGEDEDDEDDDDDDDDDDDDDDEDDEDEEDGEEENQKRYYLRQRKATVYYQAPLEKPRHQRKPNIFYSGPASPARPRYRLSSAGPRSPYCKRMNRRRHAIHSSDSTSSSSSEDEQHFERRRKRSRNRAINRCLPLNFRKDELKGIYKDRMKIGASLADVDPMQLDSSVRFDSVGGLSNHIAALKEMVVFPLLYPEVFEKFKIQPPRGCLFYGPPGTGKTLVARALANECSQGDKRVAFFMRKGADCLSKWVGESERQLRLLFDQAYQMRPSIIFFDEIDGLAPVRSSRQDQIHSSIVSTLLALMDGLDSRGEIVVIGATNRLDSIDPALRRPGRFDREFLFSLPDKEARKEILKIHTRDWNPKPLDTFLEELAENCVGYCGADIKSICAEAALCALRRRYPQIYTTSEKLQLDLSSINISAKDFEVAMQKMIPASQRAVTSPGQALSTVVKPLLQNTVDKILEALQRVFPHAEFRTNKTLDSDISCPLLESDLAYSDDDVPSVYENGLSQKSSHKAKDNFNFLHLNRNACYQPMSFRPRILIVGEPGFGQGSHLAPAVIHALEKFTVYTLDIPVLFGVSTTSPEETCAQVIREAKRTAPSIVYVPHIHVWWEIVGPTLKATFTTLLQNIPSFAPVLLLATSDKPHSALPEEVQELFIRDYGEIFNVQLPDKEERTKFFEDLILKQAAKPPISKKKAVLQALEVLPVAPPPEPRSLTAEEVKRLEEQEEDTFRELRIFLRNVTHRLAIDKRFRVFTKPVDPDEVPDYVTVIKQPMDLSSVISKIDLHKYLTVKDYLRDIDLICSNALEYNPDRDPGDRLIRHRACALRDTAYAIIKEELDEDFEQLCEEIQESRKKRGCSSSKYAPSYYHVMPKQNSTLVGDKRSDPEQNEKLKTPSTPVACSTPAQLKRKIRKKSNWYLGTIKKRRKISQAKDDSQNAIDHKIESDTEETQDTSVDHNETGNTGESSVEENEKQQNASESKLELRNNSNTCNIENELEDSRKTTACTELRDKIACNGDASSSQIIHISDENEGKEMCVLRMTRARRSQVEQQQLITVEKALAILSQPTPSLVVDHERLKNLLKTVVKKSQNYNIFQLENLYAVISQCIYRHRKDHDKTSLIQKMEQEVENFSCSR

Sequences of proteins named here, by UniProt entry; tags and fusion partners are left off.
UniProt P25440, whole entry: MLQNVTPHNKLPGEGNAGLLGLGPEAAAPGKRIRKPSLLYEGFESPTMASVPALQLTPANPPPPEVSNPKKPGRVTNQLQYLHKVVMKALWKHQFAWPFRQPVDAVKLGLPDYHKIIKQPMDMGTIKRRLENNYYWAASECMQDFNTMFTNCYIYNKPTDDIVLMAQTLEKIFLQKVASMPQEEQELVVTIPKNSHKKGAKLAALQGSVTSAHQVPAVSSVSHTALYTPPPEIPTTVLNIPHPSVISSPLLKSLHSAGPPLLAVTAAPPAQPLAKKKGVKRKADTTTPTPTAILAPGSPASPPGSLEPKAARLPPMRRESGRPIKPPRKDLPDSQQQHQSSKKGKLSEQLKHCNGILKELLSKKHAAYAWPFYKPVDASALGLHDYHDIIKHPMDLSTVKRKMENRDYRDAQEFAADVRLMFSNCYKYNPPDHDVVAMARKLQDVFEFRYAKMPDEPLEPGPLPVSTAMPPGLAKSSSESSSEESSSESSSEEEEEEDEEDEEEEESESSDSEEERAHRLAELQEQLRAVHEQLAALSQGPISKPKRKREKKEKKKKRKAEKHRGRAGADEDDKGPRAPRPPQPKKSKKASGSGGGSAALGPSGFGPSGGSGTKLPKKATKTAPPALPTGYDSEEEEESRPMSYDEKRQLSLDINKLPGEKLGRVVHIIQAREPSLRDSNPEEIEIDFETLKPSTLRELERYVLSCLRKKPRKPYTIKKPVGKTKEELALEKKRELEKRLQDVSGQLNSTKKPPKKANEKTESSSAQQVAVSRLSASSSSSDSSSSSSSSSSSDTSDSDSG

[2] = target: T1, ATPase family AAA domain-containing protein 2; remark: listed apart in the source
[3] = target: Bromodomain testis-specific protein (Homo sapiens, UniProt Q58F21); experiment: Binding affinity to BRDt containing BD1 bromodomains (unknown origin) by TR-FRET assay
[4] = target: T1, ATPase family AAA domain-containing protein 2; remark: listed apart in the source
[5] = target: T1, ATPase family AAA domain-containing protein 2; remark: listed apart in the source
[6] = target: T2, Bromodomain-containing protein 2 (Homo sapiens, UniProt P25440); experiment: Binding affinity to BRD2 containing BD2 bromodomains (unknown origin) by TR-FRET assay
[7] = target: T2, Bromodomain-containing protein 2; experiment: Binding affinity to BRD2 containing BD1 bromodomains (unknown origin) by TR-FRET assay
[8] = target: T3, Bromodomain-containing protein 4 (Homo sapiens, UniProt O60885, Y390A)
[9] = target: T3, Bromodomain-containing protein 4; remark: listed apart in the source
[10] = target: T1, ATPase family AAA domain-containing protein 2; remark: listed apart in the source
[11] = target: T1, ATPase family AAA domain-containing protein 2; experiment: biochemical
[12] = target: Bromodomain-containing protein 4 (Homo sapiens, UniProt O60885); experiment: Binding affinity to BRD4 in human HUT78 cells incubated for 45 mins by mass spectrometry based bromosphere chemoproteomic assay; format: cell-based
[13] = target: T1, ATPase family AAA domain-containing protein 2; remark: listed apart in the source

SMILES | IC50 [1] [nM] | Kd [2] | IC50 [5] [nM] | further results
Cc1cc2ccnc(N[C@@H]3CCNC[C@H]3OCC3CCS(=O)(=O)CC3)c2[nH]c1=O | 501 | 1100 nM and 1000 nM | 794 | –
Cc1cncc(-c2ccc(N[C@@H]3CCNC[C@H]3OCC3CCS(=O)(=O)CC3)c3[nH]c(=O)c(C)cc23)c1 | – | 60 nM and 63.1 nM | 63.1 | pIC50 [9]: 5.4; pIC50 [10]: 7.4; Kd [11]: 7.94 nM; Kd [12]: 1260 nM
Cc1cc2ccnc(N[C@@H]3CCNC[C@H]3OCC3CCS(=O)(=O)CC3)c2[nH]c1=O (racemic) | 1000 | – | 2510 | –
Cc1cncc(-c2ccc(N[C@@H]3CCNC[C@H]3OCC3CCS(=O)(=O)CC3)c3[nH]c(=O)c(C)cc23)c1 (racemic) | 39.8 | – | 158 | IC50 [8]: 3980 nM

More lines, in order of falling IC50 [5], values ahead:

IC50 [1] [nM] | Kd [2] | IC50 [5] [nM] | SMILES | further results
– | – | 50100 | Cc1cc2ccnc(N[C@H]3CCNC[C@@H]3OCC3CCS(=O)(=O)CC3)c2[nH]c1=O | –
100 | 200 nM | 316 | Cc1cncc(-c2cnc(N[C@@H]3CCN(C)C[C@H]3OCC3CCS(=O)(=O)CC3)c3[nH]c(=O)c(C)cc23)c1 | Kd [11]: 63.1 nM; IC50 [4]: 251 nM; Ki [13]: 20 nM
31.6 | 90 nM and 79.4 nM | 126 | Cc1cncc(-c2cnc(N[C@@H]3CCNC[C@H]3OCC3CCS(=O)(=O)CC3)c3[nH]c(=O)c(C)cc23)c1 | IC50 [3]: 31600 nM; IC50 [4]: 126 nM; IC50 [6]: > 31600 nM; IC50 [7]: 31600 nM
39.8 | 50 nM and 50.1 nM | 126 | Cc1cc2c(-c3cncc(N)c3)cnc(N[C@@H]3CCNC[C@H]3OCC3CCCCC3)c2[nH]c1=O | IC50 [8]: 631 nM

Reference: ChEMBL document CHEMBL3588744, “Structure-Based Optimization of Naphthyridones into Potent ATAD2 Bromodomain Inhibitors” (J Med Chem, 2015)
